Measured values published in patent EP3795574A1, “SYNTHESIS AND USAGE OF 1,2-DIAMINODIAMANTANE PLATINUM(II) COMPLEXES” (Justus-Liebig-Universität Gießen, priority 2019, dated 2021).

Assay: Solubility of the complexes in solvents
Details: solvent not stated

## cis-[1,2-diaminodiamantane]oxalatoplatinum(II) [(S,S)-2]
  solubility: very low solubility
